Measurements reported in EP4768477A1 (Yichang Humanwell Pharmaceutical Co., Ltd., priority 2024, dated 2025).

Chains of the proteins cited; added tags and fusions are not shown. Lines headed by an entry give the natural chain unless they say otherwise; changes in a name come on top.
UniProt P41146: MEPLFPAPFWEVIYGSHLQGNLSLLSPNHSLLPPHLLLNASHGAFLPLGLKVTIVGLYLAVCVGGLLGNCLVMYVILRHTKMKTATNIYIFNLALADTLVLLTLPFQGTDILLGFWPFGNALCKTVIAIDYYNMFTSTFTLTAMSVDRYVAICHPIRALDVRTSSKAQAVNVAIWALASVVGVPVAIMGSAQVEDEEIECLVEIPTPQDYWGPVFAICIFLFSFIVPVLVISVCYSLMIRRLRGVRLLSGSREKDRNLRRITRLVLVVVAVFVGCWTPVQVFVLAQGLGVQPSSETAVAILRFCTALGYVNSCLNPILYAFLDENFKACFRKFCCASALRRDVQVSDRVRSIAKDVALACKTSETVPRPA

Target: hNOPr (ORL-1 receptor) (Homo sapiens, UniProt P41146)
Details: cAMP, 293-NOPr cells, forskolin

Nociceptin
hNOPr (ORL-1 receptor) Emax (%): 96.94%
